The numbers were not newly measured in article PMC3082517, “Neurosteroid Dehydroepiandrosterone Interacts with Nerve Growth Factor (NGF) Receptors, Preventing Neuronal Apoptosis” (PLoS Biology, 2011), which cites them from elsewhere.

Amino acid sequences for entries named in this document (tags omitted). Residues count along the entry.
UniProt P04629, 33-423: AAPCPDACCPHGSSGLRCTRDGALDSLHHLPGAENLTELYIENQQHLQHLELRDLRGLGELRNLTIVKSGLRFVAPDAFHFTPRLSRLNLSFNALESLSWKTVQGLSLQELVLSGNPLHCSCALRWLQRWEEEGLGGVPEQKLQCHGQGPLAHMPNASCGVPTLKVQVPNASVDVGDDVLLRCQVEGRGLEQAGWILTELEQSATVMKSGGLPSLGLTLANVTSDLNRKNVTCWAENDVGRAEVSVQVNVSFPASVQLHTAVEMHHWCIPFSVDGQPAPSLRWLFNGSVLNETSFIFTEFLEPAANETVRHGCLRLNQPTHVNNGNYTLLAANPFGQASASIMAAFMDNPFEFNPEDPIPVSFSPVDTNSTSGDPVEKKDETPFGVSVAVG
UniProt P01138, 122-241: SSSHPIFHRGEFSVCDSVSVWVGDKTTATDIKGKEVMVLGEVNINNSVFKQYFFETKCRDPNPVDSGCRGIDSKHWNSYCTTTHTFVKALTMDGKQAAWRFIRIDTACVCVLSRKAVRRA

One data set deals with TrkA (Homo sapiens) (UniProt P04629). Conditions: cited from earlier work.
The target in a further data set is androgen receptors (AR). The arrangement: method as in PMID 14556282. Conditions: read-out: KD of binding to androgen receptors; cited from earlier work.

Turning to NGF (from UniProt P01138), the Kd with TrkA (Homo sapiens) is 0.01 nM.
For the molecule `C[C@]12CC[C@H](O)CC1=CC[C@@H]1[C@@H]2CC[C@]2(C)C(=O)CC[C@@H]12` [DHEA, dehydroepiandrosterone], the Kd at androgen receptors (AR) is 2000 nM.
